Reference: BindingDB's records for doi:10.1021/jm9600813 (National Institute of Diabetes and Digestive and Kidney …, 1996)

Target: Sigma non-opioid intracellular receptor 1 (Cavia porcellus) (UniProt Q60492)
Assay: Displacement of [3H](+)-pentazocine from Sigma opioid receptor type 1 in guinea pig brain membrane

COc1ccccc1CC(=O)N(C)CCN1CCCC1 [2-(2-Methoxy-phenyl)-N-methyl-N-(2-pyrrolidin-1-yl-ethyl)-acetamide] showed a Ki of 5.46 µM.
